Assay results published in US7759499B2, “Compounds as inhibitors of hepatitis C virus NS3 serine protease” (Schering Corporation, priority 2004, dated 2010).

Chains of the proteins cited; added tags and fusions are not shown. Residues count along the entry.
UniProt P27958, 1027-1657: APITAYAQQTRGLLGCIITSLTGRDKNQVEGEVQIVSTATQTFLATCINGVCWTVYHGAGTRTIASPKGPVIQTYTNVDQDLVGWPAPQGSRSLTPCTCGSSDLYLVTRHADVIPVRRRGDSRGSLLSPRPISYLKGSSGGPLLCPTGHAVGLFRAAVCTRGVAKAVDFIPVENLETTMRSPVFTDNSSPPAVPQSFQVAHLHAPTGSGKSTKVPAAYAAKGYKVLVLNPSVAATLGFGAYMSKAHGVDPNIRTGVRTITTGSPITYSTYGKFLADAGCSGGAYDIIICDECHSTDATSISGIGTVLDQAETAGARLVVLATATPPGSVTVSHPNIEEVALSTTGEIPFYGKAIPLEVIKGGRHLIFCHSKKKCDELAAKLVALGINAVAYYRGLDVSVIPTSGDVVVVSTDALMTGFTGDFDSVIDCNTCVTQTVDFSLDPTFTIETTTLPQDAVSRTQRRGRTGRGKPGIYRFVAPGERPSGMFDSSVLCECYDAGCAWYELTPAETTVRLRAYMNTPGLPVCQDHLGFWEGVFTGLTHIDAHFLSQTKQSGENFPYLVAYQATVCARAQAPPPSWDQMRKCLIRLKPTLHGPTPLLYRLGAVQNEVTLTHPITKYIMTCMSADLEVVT
UniProt P27958, 1658-1711: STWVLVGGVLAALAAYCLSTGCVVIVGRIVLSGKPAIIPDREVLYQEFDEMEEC

biological target: Recombinant heterodimeric HCV NS3/NS4A protease (strain 1a) (Hepatitis C virus genotype 1a, UniProt P27958); assay: Spectrophotometric assay for HCV protease inhibitory activity; type: biochemical; settings: Table 1, range

SMILES | Ki
CNC(=O)C(=O)C(CC1CC1)NC(=O)[C@@H]1[C@@H]2[C@H](CN1C(=O)[C@@H](NC(=O)N[C@H](CN(C)S(=O)(=O)N(C)C(=O)OCc1ccccc1)C(C)(C)C)C(C)(C)C)C2(C)C (some centres unmarked) [Compound 10047] | ≤ 75 nM
CCCCC(NC(=O)[C@@H]1[C@@H]2[C@H](CN1C(=O)[C@@H](NC(=O)N[C@H](CN(C)S(=O)(=O)N(C)C)C(C)(C)C)C1CCCCC1)C2(C)C)C(=O)C(=O)NCC (some centres unmarked) [Compound 10085] | ≤ 75 nM
CN(C[C@@H](NC(=O)N[C@H](C(=O)N1C[C@H]2[C@@H]([C@H]1C(=O)NC(CC1CC1)C(=O)C(N)=O)C2(C)C)C(C)(C)C)C(C)(C)C)S(=O)(=O)N(C)C(=O)OCc1ccccc1 (some centres unmarked) [Compound 10026] | ≤ 75 nM
CN(C)S(=O)(=O)N(C)C[C@@H](NC(=O)N[C@H](C(=O)N1C[C@H]2[C@@H]([C@H]1C(=O)NC(CC1CCC1)C(=O)C(N)=O)C2(C)C)C(C)(C)C)C1CCCCC1 (some centres unmarked) [Compound 10030] | ≤ 75 nM
C=CCNC(=O)C(=O)C(CCC)NC(=O)[C@@H]1[C@@H]2[C@H](CN1C(=O)[C@@H](NC(=O)N[C@H](CN(C)S(=O)(=O)N(C)C)C(C)(C)C)C1Cc3ccccc3C1)C2(C)C (some centres unmarked) [Compound 10055] | ≤ 75 nM
C=CCNC(=O)C(=O)C(CCC(F)(F)F)NC(=O)[C@@H]1[C@@H]2[C@H](CN1C(=O)[C@@H](NC(=O)N[C@H](CN(C)S(=O)(=O)N(C)C)C(C)(C)C)C(C)(C)C)C2(C)C (some centres unmarked) [Compound 10033] | ≤ 75 nM
C=CCNC(=O)C(=O)C(CC1CCC1)NC(=O)[C@@H]1[C@@H]2[C@H](CN1C(=O)[C@@H](NC(=O)N[C@H](CN(C)S(=O)(=O)N(C)C(=O)OCc1ccccc1)C(C)(C)C)C(C)(C)C)C2(C)C (some centres unmarked) [Compound 10054] | ≤ 75 nM
C=CCNC(=O)C(=O)C(CCC)NC(=O)[C@@H]1[C@@H]2[C@H](CN1C(=O)[C@@H](NC(=O)N[C@H](CN(C)S(=O)(=O)N(C)C)C(C)(C)C)C(C)(C)C)C2(C)C (some centres unmarked) [Compound 10100] | ≤ 75 nM
C=CCNC(=O)C(=O)C(CC1CCC1)NC(=O)[C@@H]1[C@@H]2[C@H](CN1C(=O)[C@@H](NC(=O)N[C@H](CN(C)S(=O)(=O)N(C)C)C(C)(C)C)C1CCCCC1)C2(C)C (some centres unmarked) [Compound 10056] | ≤ 75 nM
CNC(=O)C(=O)C(CCC(F)(F)F)NC(=O)[C@@H]1[C@@H]2[C@H](CN1C(=O)[C@@H](NC(=O)N[C@H](CN(C)S(=O)(=O)N(C)C)C(C)(C)C)C(C)(C)C)C2(C)C (some centres unmarked) [Compound 10008] | ≤ 75 nM

same assay, conditions: Table 2, range

SMILES | Ki
C=CCNC(=O)C(=O)C(CCC)NC(=O)[C@@H]1[C@@H]2[C@H](CN1C(=O)[C@@H](NC(=O)N[C@H](CN(C)S(=O)(=O)c1ccccn1)C(C)(C)C)C1Cc3ccccc3C1)C2(C)C (some centres unmarked) [Compound 11374] | ≤ 75 nM
CN(C[C@H](CC(C)(C)C)NC(=O)N[C@H](C(=O)N1C[C@H]2[C@@H]([C@H]1C(=O)NC(CC1CC1)C(=O)C(N)=O)C2(C)C)C(C)(C)C)S(=O)(=O)c1ccccc1 (some centres unmarked) [Compound 11132] | 75 to 250 nM
C=CCNC(=O)C(=O)C(CC1CCC1)NC(=O)[C@@H]1[C@@H]2[C@H](CN1C(=O)[C@@H](NC(=O)N[C@H](CN(C)S(=O)(=O)C(C)(C)C)C(C)(C)C)C(C)(C)C)C2(C)C (some centres unmarked) [Compound 11206] | 75 to 250 nM
C=CCNC(=O)C(=O)C(CC1CC1)NC(=O)[C@@H]1[C@@H]2[C@H](CN1C(=O)[C@@H](NC(=O)N[C@H](CN(C)S(=O)(=O)c1ccccc1Cl)C(C)(C)C)C(C)(C)C)C2(C)C (some centres unmarked) [Compound 11350] | ≤ 75 nM
CN(C[C@@H](NC(=O)N[C@H](C(=O)N1C[C@H]2[C@@H]([C@H]1C(=O)NC(CC1CCC1)C(=O)C(N)=O)C2(C)C)C1Cc2ccccc2C1)C(C)(C)C)S(C)(=O)=O (some centres unmarked) [Compound 11151] | ≤ 75 nM
C=CCNC(=O)C(=O)C(CCCC)NC(=O)[C@@H]1[C@@H]2[C@H](CN1C(=O)[C@@H](NC(=O)N[C@H](CN(CCC(C)(C)C)S(C)(=O)=O)C(C)(C)C)C(C)(C)C)C2(C)C (some centres unmarked) [Compound 11172] | ≤ 75 nM
C=CCNC(=O)C(=O)C(CC1CC1)NC(=O)[C@@H]1[C@@H]2[C@H](CN1C(=O)[C@@H](NC(=O)N[C@H](CN(C)S(=O)(=O)c1cccs1)C1CCCCC1)C1CCCCC1)C2(C)C (some centres unmarked) [Compound 11236] | ≤ 75 nM
CC(C)CC(C)(CN(C)S(=O)(=O)c1ccccc1)NC(=O)N[C@H](C(=O)N1C[C@H]2[C@@H]([C@H]1C(=O)NC(CC1CCC1)C(=O)C(N)=O)C2(C)C)C(C)(C)C (some centres unmarked) [Compound 11005] | 75 to 250 nM
C=CCNC(=O)C(=O)C(CCC)NC(=O)[C@@H]1[C@@H]2[C@H](CN1C(=O)[C@@H](NC(=O)NC1(CN(C)S(C)(=O)=O)CCCCC1)C1CCCCC1)C2(C)C (some centres unmarked) [Compound 11067] | ≤ 75 nM
C#CCCC(NC(=O)[C@@H]1[C@@H]2[C@H](CN1C(=O)[C@@H](NC(=O)N[C@H](CN(C)S(=O)(=O)c1ccccn1)C(C)(C)C)C1CCCCC1)C2(C)C)C(=O)C(=O)NCC=C (some centres unmarked) [Compound 11278] | ≤ 75 nM
C=CCNC(=O)C(=O)C(CC1CC1)NC(=O)[C@@H]1[C@@H]2[C@H](CN1C(=O)[C@@H](NC(=O)N[C@H](CN(C)S(=O)(=O)c1cc(CN(C)C(=O)c3ccccc3)cs1)C(C)(C)C)C(C)(C)C)C2(C)C (some centres unmarked) [Compound 11362] | ≤ 75 nM
C=CCNC(=O)C(=O)C(CC1CC1)NC(=O)[C@@H]1[C@@H]2[C@H](CN1C(=O)[C@@H](NC(=O)N[C@H](CN(C)S(=O)(=O)c1cccs1)C(C)(C)C)C1Cc3ccccc3C1)C2(C)C (some centres unmarked) [Compound 11176] | ≤ 75 nM
C#CCCC(NC(=O)[C@@H]1[C@@H]2[C@H](CN1C(=O)[C@@H](NC(=O)N[C@H](CN(C)S(C)(=O)=O)C(C)(C)C)C1Cc3ccccc3C1)C2(C)C)C(=O)C(=O)NCC=C (some centres unmarked) [Compound 11189] | ≤ 75 nM
C=CCNC(=O)C(=O)C(CC1CCC1)NC(=O)[C@@H]1[C@@H]2[C@H](CN1C(=O)[C@@H](NC(=O)N[C@H](CN(C)S(=O)(=O)c1ccccn1)C(C)(C)C)C1CCCCC1)C2(C)C (some centres unmarked) [Compound 11295] | ≤ 75 nM
C=CCNC(=O)C(=O)C(CCC)NC(=O)[C@@H]1[C@@H]2[C@H](CN1C(=O)[C@@H](NC(=O)N[C@H](CN(C)S(=O)(=O)c1cccs1)C1CCCCC1)C(C)(C)C)C2(C)C (some centres unmarked) [Compound 11154] | ≤ 75 nM
C#CCCC(NC(=O)[C@@H]1[C@@H]2[C@H](CN1C(=O)[C@@H](NC(=O)N[C@H](CN(C)S(=O)(=O)c1ccccc1)C(C)(C)C)C(C)(C)C)C2(C)C)C(=O)C(=O)NCC=C (some centres unmarked) [Compound 11363] | ≤ 75 nM
C=CCNC(=O)C(=O)C(CCCC)NC(=O)[C@@H]1[C@@H]2[C@H](CN1C(=O)[C@@H](NC(=O)N[C@H](CN(Cc1ccccc1)S(C)(=O)=O)C(C)(C)C)C(C)(C)C)C2(C)C (some centres unmarked) [Compound 11159] | ≤ 75 nM
Cc1nc(C)c(S(=O)(=O)N(C)C[C@@H](NC(=O)N[C@H](C(=O)N2C[C@H]3[C@@H]([C@H]2C(=O)NC(CC2CC2)C(=O)C(N)=O)C3(C)C)C(C)(C)C)C2CCCCC2)s1 (some centres unmarked) [Compound 11158] | ≤ 75 nM
C=CCNC(=O)C(=O)C(CCC(F)(F)F)NC(=O)[C@@H]1[C@@H]2[C@H](CN1C(=O)[C@@H](NC(=O)N[C@H](CN(C)S(=O)(=O)c1cccs1)[C@@H](C)CC)C(C)(C)C)C2(C)C (some centres unmarked) [Compound 11385] | ≤ 75 nM
CC(C)[C@@H](CN(C)S(=O)(=O)c1cccs1)NC(=O)N[C@H](C(=O)N1C[C@H]2[C@@H]([C@H]1C(=O)NC(CC1CCC1)C(=O)C(N)=O)C2(C)C)C(C)(C)C (some centres unmarked) [Compound 11036] | ≤ 75 nM
CC(C)(C)[C@H](NC(=O)NC1CCCN(S(=O)(=O)c2ccccc2)C1)C(=O)N1C[C@H]2[C@@H]([C@H]1C(=O)NC(CC1CCC1)C(=O)C(N)=O)C2(C)C (some centres unmarked) [Compound 11024] | 75 to 250 nM
C=CCNC(=O)C(=O)C(CCCC)NC(=O)[C@@H]1[C@@H]2[C@H](CN1C(=O)[C@@H](NC(=O)N[C@H](CN(C)S(=O)(=O)C(F)(F)F)C(C)(C)C)C(C)(C)C)C2(C)C (some centres unmarked) [Compound 11090] | ≤ 75 nM

same assay, conditions: Table 3, range

SMILES | Ki
CC[C@H](C)[C@@H](CNS(C)(=O)=O)NC(=O)N[C@H](C(=O)N1C[C@H]2[C@@H]([C@H]1C(=O)NC(CC1CCC1)C(=O)C(N)=O)C2(C)C)C(C)(C)C (some centres unmarked) [Compound 12023] | ≤ 75 nM
C=CCNC(=O)C(=O)C(CC1CC1)NC(=O)[C@@H]1[C@@H]2[C@H](CN1C(=O)[C@@H](NC(=O)N[C@H](CNS(=O)(=O)C1CC1)C(C)C)C(C)(C)C)C2(C)C (some centres unmarked) [Compound 12014] | > 250 nM

same assay, conditions: Table 4, range

SMILES | Ki
CC(C)[C@@H](CNC(=O)c1ccccc1)NC(=O)N[C@H](C(=O)N1C[C@H]2[C@@H]([C@H]1C(=O)NC(CC1CCC1)C(=O)C(N)=O)C2(C)C)C(C)(C)C (some centres unmarked) [Compound 13009] | ≤ 75 nM
C#CCCC(NC(=O)[C@@H]1[C@@H]2[C@H](CN1C(=O)[C@@H](NC(=O)N[C@H](CN(C)C(=O)C(F)(F)F)C(C)(C)C)C1CCCCC1)C2(C)C)C(=O)C(=O)NCC=C (some centres unmarked) [Compound 13028] | ≤ 75 nM

same assay, conditions: Table 5, range

SMILES | Ki
C=CCNC(=O)C(=O)C(CC1CC1)NC(=O)[C@@H]1[C@@H]2[C@H](CN1C(=O)[C@@H](NC(=O)N[C@H](CN(C)C(=O)OC)C(C)C)C(C)(C)C)C2(C)C (some centres unmarked) [Compound 14036] | 75 to 250 nM
C=CCNC(=O)C(=O)C(CCC)NC(=O)[C@@H]1[C@@H]2[C@H](CN1C(=O)[C@@H](NC(=O)N[C@H](CN(C)C(=O)OC(C)(C)C)CC(C)(C)C)C(C)(C)C)C2(C)C (some centres unmarked) [Compound 14042] | > 250 nM
CC(C)[C@@H](CNC(=O)Nc1ccccc1)NC(=O)N[C@H](C(=O)N1C[C@H]2[C@@H]([C@H]1C(=O)NC(CC1CCC1)C(=O)C(N)=O)C2(C)C)C(C)(C)C (some centres unmarked) [Compound 14002] | ≤ 75 nM

same assay, conditions: Table 5A, range

SMILES | Ki
CCCCC(NC(=O)[C@@H]1[C@@H]2[C@H](CN1C(=O)[C@@H](NC(=O)N[C@H](CN(C)S(=O)(=O)CC)C(C)(C)C)C1Cc3ccccc3C1)C2(C)C)C(=O)C(=O)NC1CC1 (some centres unmarked) [Compound 11399] | ≤ 75 nM
CCCCC(NC(=O)[C@@H]1[C@@H]2[C@H](CN1C(=O)[C@@H](NC(=O)N[C@H](CN(C)S(=O)(=O)CC)C(C)(C)C)C1(C)Cc3ccccc3C1)C2(C)C)C(=O)C(=O)NC1CC1 (some centres unmarked) [Compound 11426] | ≤ 75 nM

same assay, conditions: Table 6

SMILES | Ki
CN(C[C@@H](NC(=O)N[C@H](C(=O)N1C[C@H]2[C@@H]([C@H]1C(=O)NC(CC1CCC1)C(=O)C(N)=O)C2(C)C)C(C)(C)C)C(C)(C)C)C(=O)C(F)(F)F (some centres unmarked) [drawing 64] | 2 nM
CCCCC(NC(=O)[C@@H]1[C@@H]2[C@H](CN1C(=O)[C@@H](NC(=O)N[C@H](CN(C)S(=O)(=O)CC)C(C)(C)C)C1Cc3ccccc3C1)C2(C)C)C(=O)C(=O)NC1CC1 (some centres unmarked) [Compound 11399] | 4 nM
C=CCNC(=O)C(=O)C(CCC)NC(=O)[C@@H]1[C@@H]2[C@H](CN1C(=O)[C@@H](NC(=O)N[C@H](CN(C)S(=O)(=O)c1ccccn1)C(C)(C)C)C(C)(C)C)C2(C)C (some centres unmarked) [drawing 57] | 14 nM
